According to US20190002511A1:

Molecular target: human α-thrombin (recombinant) (human) (UniProt P00734)
Test: cell-based or functional assay

β-variegin (peptide) was tested, and the IC50, inhibition of thrombin amidolytic activity was 118 nM.
